Amino acid sequences for entries named in this document (tags omitted). A change or cut given only in a name is not applied to a line headed by its entry.
UniProt O00481: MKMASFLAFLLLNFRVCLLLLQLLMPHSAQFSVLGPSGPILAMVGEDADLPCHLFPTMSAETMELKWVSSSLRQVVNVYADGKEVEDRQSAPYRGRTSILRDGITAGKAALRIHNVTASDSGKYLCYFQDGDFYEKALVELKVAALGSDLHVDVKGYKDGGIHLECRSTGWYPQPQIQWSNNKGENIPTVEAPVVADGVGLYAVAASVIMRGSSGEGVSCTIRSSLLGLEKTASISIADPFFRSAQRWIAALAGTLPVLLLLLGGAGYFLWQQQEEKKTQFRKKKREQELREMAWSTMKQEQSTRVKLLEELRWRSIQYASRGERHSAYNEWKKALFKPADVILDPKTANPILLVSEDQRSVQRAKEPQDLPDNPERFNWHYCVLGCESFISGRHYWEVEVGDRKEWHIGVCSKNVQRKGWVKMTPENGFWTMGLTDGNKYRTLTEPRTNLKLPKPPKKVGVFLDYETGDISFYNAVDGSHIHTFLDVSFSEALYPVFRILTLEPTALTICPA

According to ChEMBL document CHEMBL4007426, “Phosphinophosphonates and Their Tris-pivaloyloxymethyl Prodrugs Reveal a Negatively Cooperative Butyrophilin Activation Mechanism” (J Med Chem, 2017):

Key:
[1] = biological target: Butyrophilin subfamily 3 member A1 (Homo sapiens) (UniProt O00481); conditions: 480 uM
[2] = biological target: Butyrophilin subfamily 3 member A1 (Homo sapiens) (UniProt O00481); conditions: 688 uM
[3] = biological target: Butyrophilin subfamily 3 member A1 (Homo sapiens) (UniProt O00481); assay: Potency index, ratio of HMBPP EC50 to compound EC50 for BTN3A1 in human Vgamma9Vdelta2 T cells
[4] = biological target: Butyrophilin subfamily 3 member A1 (Homo sapiens) (UniProt O00481); conditions: 240 uM
[5] = biological target: Butyrophilin subfamily 3 member A1 (Homo sapiens) (UniProt O00481); conditions: 240 uM; remark: listed apart in the source
[6] = biological target: Butyrophilin subfamily 3 member A1 (Homo sapiens) (UniProt O00481); conditions: 480 uM; remark: listed apart in the source
[7] = Selectivity index, ratio of IC50 for human Vgamma9Vdelta2 T cells to EC50 for BTN3A1 in human Vgamma9Vdelta2 T cells; assay type: functional
[8] = biological target: Butyrophilin subfamily 3 member A1 (Homo sapiens) (UniProt O00481); conditions: 688 uM; remark: listed apart in the source
[9] = biological target: Butyrophilin subfamily 3 member A1 (Homo sapiens) (UniProt O00481)
[10] = biological target: Butyrophilin subfamily 3 member A1 (Homo sapiens) (UniProt O00481); remark: listed apart in the source

## C/C(=C\CCP(=O)([O-])CP(=O)([O-])[O-])CO.[Na+].[Na+].[Na+]
[1]
  deltaG: -5.43 kcal/mol
[2]
  deltaH: -17.7 kcal/mol
[3]
  Ratio EC50: 2e-05
[4]
  deltaH: -17.2 kcal/mol
[5]
  deltaG: -5.23 kcal/mol
[6]
  deltaH: -18.6 kcal/mol
[7]
  Ratio IC50/EC50: >3.8
[8]
  deltaG: -5.57 kcal/mol

## CC(C)=CCCP(=O)(CP(=O)(OCOC(=O)C(C)(C)C)OCOC(=O)C(C)(C)C)OCOC(=O)C(C)(C)C (centres undefined)
[3]
  Ratio EC50: < 5.1e-06

## COP(=O)(CC/C=C(\C)CO)CP(=O)(OC)OC (centres undefined)
[3]
  Ratio EC50: < 5.1e-06

## CC(C)=CCCP(=O)(O)CP(=O)(O)O
[9]
  deltaH: -9.32 kcal/mol
[10]
  deltaH: -1.65 kcal/mol
[3]
  Ratio EC50: < 5.1e-06

## C/C(=C\CCP(=O)(CP(=O)(OCOC(=O)C(C)(C)C)OCOC(=O)C(C)(C)C)OCOC(=O)C(C)(C)C)CO (centres undefined)
[3]
  Ratio EC50: 0.012
